How the values were obtained:
[1] = molecular target: EGFR L858R/T790M/C797S (BaF3-LTC cells) (Homo sapiens, UniProt P00533, C797S/L858R/T790M); test: EGFR degradation HTRF assay, BaF3-LTC cells; type: cell-based
Description: (§1) BaF3 WT(wild type), BaF3-LTC(L858R/T790M/C797S) and BaF3-DTC(Del19/T790M/C797S) cells are treated with compounds diluted in 0.2% DMSO cell culture medium and incubate for 16h, 37° C., 5% CO2, H1975-#36, H1975-#28, H1975-#23 and HCC827 cells are treated with compounds diluted in 0.2% DMSO cell culture medium on day 2, incubate for 16h, 37° C., 5% CO2.the final concentriation of compounds in all assay is start with 10 uM, 5-fold dilution, total 8 doses were included.
(§2) After 16h treatment, add HTRF lysis buffer to each well; seal the plate and incubate 1 hour at room temperature on a plate shaker; Once the cells are lysed, 16 μL of cell lysate are transferred to a PE 384-well HTRF detection plate; 4 μL of pre-mixed HTRF antibodies are added to each well; Cover the plate with a plate sealer, spin 1000 rpm for 1 min, Incubate overnight at room temperature; Read on BMG PheraStar with HTRF protocol (337 nm-665 nm-620 nm).
(§3) The inhibition (degradation) percentage of the compound was calculated by the following equation: Inhibition percentage of Compound=100-100×(Signal-low control)/(High control-low control), wherein signal=each test compound group
(§4) High control=Cell group with added DMSO and without compound, indicating microplate readings without EGFR degradation;
(§5) Dmax is the maximum percentage of inhibition (degradation). […]

The chains behind the UniProt entries cited, without tags or fusion partners. A line that says so, or that is headed by a name, gives the form on record, which may keep a tag or linker. Residues count along the entry.
UniProt P00533, 25-1210 T790M/L858R limits assumed: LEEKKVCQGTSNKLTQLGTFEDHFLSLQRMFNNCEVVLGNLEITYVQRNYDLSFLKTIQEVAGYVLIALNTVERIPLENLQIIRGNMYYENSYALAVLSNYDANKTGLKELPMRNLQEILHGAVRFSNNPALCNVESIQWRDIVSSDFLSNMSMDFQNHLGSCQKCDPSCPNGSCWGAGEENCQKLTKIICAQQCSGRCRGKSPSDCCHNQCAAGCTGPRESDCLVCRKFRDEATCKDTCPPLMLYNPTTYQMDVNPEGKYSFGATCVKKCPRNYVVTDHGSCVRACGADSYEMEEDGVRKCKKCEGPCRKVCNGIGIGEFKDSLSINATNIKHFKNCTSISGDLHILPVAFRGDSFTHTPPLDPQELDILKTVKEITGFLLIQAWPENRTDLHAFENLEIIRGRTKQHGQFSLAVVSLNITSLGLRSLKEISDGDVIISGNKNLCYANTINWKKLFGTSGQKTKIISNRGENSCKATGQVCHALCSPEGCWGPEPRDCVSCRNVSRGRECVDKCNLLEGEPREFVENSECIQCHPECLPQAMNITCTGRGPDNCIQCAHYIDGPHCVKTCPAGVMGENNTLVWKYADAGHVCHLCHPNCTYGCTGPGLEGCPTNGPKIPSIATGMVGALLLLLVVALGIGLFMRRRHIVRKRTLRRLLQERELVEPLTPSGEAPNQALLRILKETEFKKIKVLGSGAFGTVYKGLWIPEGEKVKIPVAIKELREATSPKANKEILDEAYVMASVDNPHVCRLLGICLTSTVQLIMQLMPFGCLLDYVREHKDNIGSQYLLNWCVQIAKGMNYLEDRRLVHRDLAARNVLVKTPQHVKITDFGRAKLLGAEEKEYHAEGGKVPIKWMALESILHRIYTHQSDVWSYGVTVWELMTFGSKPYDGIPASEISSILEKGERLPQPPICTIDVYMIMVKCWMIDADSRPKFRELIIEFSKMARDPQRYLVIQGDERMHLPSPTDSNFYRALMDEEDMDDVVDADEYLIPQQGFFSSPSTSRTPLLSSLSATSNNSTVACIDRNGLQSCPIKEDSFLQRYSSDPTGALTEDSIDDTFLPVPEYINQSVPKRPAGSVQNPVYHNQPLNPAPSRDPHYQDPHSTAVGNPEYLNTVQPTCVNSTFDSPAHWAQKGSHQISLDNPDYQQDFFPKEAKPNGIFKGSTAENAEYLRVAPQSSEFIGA
UniProt P00533, 25-1210 T790M/C797S/L858R limits assumed: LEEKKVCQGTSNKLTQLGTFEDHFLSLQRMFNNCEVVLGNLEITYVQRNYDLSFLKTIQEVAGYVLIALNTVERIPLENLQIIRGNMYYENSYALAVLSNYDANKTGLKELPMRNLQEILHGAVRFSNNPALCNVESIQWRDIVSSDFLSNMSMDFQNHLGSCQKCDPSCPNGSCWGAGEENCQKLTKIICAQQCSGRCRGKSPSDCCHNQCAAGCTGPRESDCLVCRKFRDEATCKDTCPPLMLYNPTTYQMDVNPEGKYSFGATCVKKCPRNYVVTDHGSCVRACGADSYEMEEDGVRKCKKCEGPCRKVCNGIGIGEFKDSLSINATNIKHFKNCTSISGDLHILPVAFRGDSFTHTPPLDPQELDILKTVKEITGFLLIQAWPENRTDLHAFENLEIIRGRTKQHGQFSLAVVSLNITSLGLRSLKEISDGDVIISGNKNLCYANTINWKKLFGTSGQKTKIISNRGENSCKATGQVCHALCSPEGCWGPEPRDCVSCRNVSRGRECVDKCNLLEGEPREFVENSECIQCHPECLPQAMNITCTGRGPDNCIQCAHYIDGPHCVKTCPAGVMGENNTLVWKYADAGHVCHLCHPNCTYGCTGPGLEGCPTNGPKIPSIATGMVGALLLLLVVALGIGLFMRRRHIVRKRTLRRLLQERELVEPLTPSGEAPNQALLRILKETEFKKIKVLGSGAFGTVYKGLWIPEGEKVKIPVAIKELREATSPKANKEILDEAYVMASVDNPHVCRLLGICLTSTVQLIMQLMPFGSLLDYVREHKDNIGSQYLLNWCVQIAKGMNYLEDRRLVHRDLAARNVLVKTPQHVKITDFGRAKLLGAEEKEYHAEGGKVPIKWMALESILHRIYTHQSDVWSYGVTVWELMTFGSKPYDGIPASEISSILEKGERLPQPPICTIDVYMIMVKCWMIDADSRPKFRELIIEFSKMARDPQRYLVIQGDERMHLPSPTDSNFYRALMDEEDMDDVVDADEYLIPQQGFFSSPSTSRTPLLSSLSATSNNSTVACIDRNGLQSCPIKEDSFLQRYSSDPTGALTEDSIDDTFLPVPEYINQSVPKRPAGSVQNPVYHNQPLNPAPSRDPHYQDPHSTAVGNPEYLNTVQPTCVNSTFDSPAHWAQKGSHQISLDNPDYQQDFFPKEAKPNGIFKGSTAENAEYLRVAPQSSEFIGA
UniProt P00533, with tags, fused parts or gaps DEL746-750 limits assumed: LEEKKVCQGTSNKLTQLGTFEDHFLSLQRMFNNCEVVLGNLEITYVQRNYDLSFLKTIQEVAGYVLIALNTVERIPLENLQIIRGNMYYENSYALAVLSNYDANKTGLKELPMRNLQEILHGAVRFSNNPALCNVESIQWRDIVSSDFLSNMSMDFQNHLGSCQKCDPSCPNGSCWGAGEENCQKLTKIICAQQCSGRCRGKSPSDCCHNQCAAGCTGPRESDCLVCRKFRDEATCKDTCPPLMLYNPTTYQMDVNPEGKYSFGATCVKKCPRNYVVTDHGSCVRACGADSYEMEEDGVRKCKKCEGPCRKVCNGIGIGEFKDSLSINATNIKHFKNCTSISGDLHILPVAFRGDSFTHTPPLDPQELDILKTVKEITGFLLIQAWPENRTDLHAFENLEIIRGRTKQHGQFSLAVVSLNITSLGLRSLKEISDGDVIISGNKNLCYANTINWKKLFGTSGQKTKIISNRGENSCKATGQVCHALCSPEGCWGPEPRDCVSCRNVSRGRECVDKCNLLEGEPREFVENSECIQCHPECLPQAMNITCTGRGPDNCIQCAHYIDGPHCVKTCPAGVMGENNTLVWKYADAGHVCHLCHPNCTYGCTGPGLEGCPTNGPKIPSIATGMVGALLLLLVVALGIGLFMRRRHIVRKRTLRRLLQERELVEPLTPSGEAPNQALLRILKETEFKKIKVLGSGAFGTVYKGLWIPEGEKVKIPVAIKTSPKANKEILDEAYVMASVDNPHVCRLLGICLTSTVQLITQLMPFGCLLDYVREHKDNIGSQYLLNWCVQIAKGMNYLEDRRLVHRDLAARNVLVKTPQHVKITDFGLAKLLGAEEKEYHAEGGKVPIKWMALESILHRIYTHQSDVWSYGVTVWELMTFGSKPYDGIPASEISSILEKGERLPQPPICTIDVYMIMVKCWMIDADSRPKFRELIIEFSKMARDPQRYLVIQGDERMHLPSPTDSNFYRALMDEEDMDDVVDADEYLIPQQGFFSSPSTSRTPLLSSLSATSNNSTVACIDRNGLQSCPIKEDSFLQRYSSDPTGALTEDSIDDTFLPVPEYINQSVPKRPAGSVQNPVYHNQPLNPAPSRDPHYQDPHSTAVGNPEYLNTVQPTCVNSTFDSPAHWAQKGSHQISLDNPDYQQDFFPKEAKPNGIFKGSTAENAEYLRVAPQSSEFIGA

[2] = tested on: EGFR Del19/T790M/C797S (H1975-clone #28); test: EGFR degradation HTRF assay, H1975-clone #28 DTC cells; type: cell-based; details: H1975 # 28 DTC cells
Description: H1975-clone #28(Del19/T790M/C797S) and H1975-clone #23(Del19/C797S). EGFR-Del19/T790M/C797S and EGFR-Del19/C797S were stably expressed in H1975 cell lines by lentivirus-mediated over-expression, respectively. The EGFR over-expressed cells then underwent gene knockout, in which the EGFR targeting sgRNA was designed to only target the endogenous EGFR copies and preserve the exogenous EGFR copies. Followed by the gene knockout, the edited H1975 cells were seeded in 96 well plates at the concentration of 1 cell/well, cultured for about 2 weeks to allow single clones formation. The formed clones were screened by DNA sequencing and whole exon sequencing analysis for the desired edition. […]
as §2
(§6) The inhibition (degradation) percentage of the compound was calculated by the following equation: Inhibition percentage of Compound=100-100×(Signal-low control)/(High control-low control), wherein signal=each test compound group […]

[3] = molecular target: EGFR (HCC827 cells) (Homo sapiens, UniProt P00533, DEL746-750); test: EGFR degradation HTRF assay, HCC827 cells; details: HCC827, 16h treatment
Description: as §1, §2, §3, §4, §5

[4] = molecular target: EGFR L858R/T790M (H1975-clone #36, homozygous) (Homo sapiens, UniProt P00533, L858R/T790M); test: EGFR degradation HTRF assay, H1975-clone #36 cells; details: H1975 #36, 16h treatment
Description: H1975-clone #36(L858R/T790M). H1975 cell heterozygously (from ATCC) contains alleles of WT and L858R/T790M EGFR. H1975-clone #36(L858R/T790M) was generated by gene knockout, in which the EGFR targeting sgRNA was designed to specifically target WT EGFR but preserve the L858R/T790M copy. Followed by the gene knockout, the edited H1975 cells were seeded in 96 well plates at the concentration of 1 cell/well, cultured for about 2 weeks to allow single clones formation. The formed clones were screened by DNA sequencing for the desired edition. H1975-clone #36 was confirmed as a homozygous L858R/T790M EGFR clone. […]
as §2, §6

[5] = maximum percentage of inhibition (degradation)
[6] = maximum percentage of degradation

## CCOc1cc(N2CCC(N3CCN(C(=O)[C@@H]4CCN(c5cc(F)c(C6CCC(=O)NC6=O)c(F)c5)C4)CC3)CC2)c(CC)cc1Nc1ncc(Br)c(Nc2ccc3cnc(C)cc3c2P(C)(C)=O)n1 (some centres unmarked)
[1]; [5]
  Dmax (%) BaF3-LTC: 72.22%
[1]; read-out: DC50(nM) BaF3-LTC, EGFR degradation, IC50 (DC50) from curve fit
  DC50: 15.9 nM
[2]; [5]
  Dmax (%) H1975 # 28 DTC: 77.55%
[2]; read-out: DC50(nM) H1975 # 28 DTC, EGFR degradation, IC50 (DC50) from curve fit
  DC50: 2.27 nM

## COc1cc(N2CCC(N(C)CC3CCN(c4ccc(N5CCC(=O)NC5=O)cc4C)CC3)CC2)c(C)cc1Nc1ncc(Br)c(Nc2ccc3nccnc3c2P(C)(C)=O)n1
[3]; [6]
  HCC827 Dmax (%): 65.89%
[3]; read-out: HCC827 DC50
  DC50: 0.0291 µM
[4]; [6]
  H1975 #36 Dmax (%): 10.7%
[4]; read-out: H1975 #36 DC50
  DC50: > 10 µM
